Results from BindingDB's records for doi:10.1124/jpet.104.067884 (Sanofi-Synthelabo Recherche, 2004).

Sequences of proteins named here, by UniProt entry; tags and fusion partners are left off. A change or cut given only in a name is not applied to a line headed by its entry.
UniProt P41145: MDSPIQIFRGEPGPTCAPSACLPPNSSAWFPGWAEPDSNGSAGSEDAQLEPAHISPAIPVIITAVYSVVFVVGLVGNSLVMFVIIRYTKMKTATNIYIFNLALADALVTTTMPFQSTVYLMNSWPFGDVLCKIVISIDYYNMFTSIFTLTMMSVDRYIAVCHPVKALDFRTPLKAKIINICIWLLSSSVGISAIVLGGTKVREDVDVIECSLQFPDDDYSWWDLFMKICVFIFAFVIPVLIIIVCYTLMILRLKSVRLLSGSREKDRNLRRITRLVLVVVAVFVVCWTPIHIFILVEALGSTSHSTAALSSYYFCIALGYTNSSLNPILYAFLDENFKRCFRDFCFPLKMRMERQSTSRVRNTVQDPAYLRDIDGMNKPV
UniProt P35348: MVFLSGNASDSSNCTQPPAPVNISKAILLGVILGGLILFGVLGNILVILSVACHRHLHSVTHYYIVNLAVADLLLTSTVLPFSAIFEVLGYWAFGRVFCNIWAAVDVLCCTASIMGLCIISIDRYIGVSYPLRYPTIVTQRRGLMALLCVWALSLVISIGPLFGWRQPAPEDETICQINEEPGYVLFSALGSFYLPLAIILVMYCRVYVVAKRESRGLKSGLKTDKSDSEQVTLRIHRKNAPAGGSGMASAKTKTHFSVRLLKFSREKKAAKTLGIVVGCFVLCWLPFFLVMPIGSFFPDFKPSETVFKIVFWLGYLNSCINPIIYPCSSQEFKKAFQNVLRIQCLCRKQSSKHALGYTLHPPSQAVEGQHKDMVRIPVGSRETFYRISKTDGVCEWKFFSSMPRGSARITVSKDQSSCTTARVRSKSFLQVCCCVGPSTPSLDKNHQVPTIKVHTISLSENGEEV
UniProt P28336: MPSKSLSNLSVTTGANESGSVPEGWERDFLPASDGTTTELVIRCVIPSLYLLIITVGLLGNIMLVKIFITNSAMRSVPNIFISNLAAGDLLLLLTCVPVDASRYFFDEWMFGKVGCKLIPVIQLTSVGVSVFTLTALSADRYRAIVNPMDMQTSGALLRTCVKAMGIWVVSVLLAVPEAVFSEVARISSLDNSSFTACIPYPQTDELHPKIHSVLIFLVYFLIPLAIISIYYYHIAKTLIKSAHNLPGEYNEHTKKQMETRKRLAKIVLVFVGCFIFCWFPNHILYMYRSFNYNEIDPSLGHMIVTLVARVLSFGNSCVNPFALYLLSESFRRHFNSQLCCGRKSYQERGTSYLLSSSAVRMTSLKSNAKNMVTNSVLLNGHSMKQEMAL
UniProt P07550, whole entry: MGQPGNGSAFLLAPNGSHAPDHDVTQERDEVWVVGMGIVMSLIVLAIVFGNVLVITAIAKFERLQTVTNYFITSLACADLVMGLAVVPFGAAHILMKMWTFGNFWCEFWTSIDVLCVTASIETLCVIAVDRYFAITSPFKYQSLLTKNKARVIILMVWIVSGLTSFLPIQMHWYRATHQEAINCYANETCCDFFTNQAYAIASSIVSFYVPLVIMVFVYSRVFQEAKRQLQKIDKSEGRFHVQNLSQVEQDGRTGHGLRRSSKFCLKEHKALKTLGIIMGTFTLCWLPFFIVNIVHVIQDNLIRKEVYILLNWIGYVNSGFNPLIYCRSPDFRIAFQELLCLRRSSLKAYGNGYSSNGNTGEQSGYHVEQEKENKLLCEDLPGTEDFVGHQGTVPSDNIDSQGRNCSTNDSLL
UniProt P08588, whole entry: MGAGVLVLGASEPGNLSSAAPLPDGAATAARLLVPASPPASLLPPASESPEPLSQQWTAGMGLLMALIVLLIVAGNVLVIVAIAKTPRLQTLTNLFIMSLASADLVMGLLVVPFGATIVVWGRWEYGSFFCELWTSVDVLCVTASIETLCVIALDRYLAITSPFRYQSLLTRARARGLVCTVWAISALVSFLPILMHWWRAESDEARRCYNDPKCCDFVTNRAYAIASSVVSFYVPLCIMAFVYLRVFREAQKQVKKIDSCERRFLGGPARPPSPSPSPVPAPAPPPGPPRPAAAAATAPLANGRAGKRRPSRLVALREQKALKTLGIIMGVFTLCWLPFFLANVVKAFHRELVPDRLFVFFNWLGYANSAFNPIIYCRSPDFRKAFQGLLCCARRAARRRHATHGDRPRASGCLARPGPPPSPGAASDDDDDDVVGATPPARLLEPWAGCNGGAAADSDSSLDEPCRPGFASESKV
UniProt P28221: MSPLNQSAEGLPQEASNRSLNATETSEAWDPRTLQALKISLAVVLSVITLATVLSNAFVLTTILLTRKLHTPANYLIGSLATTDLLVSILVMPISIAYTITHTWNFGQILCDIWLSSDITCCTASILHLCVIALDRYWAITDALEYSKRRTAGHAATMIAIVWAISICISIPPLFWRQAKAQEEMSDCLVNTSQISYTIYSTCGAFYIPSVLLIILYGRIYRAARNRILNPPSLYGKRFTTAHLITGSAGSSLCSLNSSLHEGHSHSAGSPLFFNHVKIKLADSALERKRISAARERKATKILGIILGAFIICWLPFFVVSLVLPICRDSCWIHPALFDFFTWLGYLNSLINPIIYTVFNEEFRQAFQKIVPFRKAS
UniProt P21917, whole entry: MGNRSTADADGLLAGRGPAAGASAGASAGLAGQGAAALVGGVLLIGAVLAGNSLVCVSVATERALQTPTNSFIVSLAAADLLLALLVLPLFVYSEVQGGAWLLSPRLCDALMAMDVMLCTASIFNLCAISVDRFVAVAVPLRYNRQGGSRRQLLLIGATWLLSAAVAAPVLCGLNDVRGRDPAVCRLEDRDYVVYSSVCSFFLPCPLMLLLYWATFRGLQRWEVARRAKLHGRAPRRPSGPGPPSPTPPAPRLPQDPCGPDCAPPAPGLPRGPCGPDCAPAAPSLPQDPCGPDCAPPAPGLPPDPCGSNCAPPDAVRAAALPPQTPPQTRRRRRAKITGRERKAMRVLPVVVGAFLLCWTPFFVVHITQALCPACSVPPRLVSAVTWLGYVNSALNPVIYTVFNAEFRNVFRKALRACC
UniProt Q99JA4: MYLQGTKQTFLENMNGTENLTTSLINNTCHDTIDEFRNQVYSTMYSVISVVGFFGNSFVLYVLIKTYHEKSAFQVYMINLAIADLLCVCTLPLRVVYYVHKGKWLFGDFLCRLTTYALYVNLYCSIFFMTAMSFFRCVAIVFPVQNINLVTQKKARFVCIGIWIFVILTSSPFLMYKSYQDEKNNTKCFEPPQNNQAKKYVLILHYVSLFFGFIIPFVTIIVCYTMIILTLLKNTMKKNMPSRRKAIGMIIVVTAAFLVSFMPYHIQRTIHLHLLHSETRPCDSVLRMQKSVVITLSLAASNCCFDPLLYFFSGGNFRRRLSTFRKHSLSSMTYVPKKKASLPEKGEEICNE
UniProt P25105: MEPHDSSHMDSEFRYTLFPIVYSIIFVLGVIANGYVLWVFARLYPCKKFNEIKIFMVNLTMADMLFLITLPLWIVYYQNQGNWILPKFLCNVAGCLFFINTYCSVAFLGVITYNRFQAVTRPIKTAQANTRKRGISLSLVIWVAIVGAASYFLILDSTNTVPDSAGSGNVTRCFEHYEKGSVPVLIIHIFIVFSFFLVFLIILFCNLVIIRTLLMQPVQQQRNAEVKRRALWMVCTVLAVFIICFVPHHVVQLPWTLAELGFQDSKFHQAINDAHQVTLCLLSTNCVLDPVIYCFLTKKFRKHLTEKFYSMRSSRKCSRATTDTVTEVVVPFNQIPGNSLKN
UniProt Q6MFX8, whole entry: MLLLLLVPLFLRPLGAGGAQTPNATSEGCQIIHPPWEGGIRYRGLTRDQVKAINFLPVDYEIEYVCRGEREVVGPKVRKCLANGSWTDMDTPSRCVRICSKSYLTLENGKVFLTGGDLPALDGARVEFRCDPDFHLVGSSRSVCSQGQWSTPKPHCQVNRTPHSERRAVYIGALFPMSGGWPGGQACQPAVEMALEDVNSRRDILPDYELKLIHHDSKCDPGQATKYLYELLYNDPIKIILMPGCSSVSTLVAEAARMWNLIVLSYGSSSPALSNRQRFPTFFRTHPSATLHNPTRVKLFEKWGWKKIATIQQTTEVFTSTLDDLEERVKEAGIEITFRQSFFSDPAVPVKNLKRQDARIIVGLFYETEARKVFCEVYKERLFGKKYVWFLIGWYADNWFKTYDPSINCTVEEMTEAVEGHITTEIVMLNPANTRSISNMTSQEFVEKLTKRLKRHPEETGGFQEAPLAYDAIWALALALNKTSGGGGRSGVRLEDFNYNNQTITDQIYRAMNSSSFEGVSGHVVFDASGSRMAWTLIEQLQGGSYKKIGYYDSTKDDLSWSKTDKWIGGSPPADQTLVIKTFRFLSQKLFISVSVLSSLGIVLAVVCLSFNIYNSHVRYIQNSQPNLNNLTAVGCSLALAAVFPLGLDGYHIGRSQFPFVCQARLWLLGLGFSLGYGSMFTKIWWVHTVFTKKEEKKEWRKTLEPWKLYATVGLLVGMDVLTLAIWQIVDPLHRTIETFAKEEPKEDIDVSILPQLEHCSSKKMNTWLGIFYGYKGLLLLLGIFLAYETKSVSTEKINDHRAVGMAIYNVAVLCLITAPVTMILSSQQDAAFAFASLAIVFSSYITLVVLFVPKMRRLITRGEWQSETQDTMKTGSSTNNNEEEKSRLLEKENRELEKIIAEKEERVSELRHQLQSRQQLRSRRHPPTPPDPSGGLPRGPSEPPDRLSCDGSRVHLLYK
UniProt Q9Y587: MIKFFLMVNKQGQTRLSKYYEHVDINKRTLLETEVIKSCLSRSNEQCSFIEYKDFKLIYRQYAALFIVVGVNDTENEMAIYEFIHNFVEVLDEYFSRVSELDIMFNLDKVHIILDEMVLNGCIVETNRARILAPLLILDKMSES
UniProt O95153: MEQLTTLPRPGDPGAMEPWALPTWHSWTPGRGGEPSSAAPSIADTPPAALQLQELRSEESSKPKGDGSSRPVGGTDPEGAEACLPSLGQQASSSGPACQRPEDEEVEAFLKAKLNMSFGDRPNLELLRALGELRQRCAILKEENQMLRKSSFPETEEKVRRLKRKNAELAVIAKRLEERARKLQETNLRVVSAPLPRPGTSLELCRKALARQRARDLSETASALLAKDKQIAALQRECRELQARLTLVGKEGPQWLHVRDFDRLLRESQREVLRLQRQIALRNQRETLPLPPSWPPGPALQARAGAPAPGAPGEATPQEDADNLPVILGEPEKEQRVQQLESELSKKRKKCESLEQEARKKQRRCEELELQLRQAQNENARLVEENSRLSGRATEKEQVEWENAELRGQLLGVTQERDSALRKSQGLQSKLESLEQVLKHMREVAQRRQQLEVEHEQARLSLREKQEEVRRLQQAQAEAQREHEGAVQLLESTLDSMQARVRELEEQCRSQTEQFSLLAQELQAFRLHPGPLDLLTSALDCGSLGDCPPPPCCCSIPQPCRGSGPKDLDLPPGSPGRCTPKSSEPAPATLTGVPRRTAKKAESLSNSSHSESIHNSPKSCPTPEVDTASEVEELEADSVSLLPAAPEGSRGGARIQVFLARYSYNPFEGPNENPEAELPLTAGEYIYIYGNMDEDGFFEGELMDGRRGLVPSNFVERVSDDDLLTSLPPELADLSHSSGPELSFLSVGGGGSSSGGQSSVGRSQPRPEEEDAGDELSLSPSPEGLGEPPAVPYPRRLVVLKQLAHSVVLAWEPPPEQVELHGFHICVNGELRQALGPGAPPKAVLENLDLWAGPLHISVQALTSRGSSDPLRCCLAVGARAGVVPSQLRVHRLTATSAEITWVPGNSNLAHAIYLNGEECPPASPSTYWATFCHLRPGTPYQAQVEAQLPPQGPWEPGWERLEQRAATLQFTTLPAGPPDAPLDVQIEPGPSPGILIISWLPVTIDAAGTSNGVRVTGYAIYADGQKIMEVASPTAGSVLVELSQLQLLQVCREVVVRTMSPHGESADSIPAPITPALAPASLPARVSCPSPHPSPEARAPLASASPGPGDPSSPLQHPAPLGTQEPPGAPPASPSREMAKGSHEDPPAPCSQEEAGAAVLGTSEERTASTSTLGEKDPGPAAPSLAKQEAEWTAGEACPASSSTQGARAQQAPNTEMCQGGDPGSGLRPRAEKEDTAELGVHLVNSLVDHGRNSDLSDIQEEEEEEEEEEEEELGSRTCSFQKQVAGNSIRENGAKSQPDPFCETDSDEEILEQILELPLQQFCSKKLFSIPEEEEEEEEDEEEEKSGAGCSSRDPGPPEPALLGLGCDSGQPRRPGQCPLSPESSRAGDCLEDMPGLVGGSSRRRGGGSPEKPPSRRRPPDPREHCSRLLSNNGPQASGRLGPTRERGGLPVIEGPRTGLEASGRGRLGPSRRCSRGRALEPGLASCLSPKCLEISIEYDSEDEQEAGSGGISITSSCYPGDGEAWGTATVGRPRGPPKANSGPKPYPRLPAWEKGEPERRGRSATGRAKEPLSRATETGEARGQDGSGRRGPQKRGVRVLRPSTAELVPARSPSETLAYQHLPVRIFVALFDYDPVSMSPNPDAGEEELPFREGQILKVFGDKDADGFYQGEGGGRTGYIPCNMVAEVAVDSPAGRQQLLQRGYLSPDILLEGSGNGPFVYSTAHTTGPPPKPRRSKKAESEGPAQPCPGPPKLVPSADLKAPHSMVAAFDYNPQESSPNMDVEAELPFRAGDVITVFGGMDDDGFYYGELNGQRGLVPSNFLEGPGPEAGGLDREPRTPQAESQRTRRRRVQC

Experiments:
[1] = target: 5-hydroxytryptamine receptor 2C (Homo sapiens, UniProt P28335)
P2X purinoceptor 1 = P2X purinoceptor 1 (Homo sapiens, UniProt P51575)
[2] = target: Kappa-type opioid receptor (Homo sapiens, UniProt P41145)
Galanin peptides = Galanin peptides (Homo sapiens, UniProt P22466)
[3] = target: Alpha-1A adrenergic receptor (Homo sapiens, UniProt P35348)
[4] = target: Endothelin receptor type B (Homo sapiens, UniProt P24530)
Neuromedin-B receptor = Neuromedin-B receptor (Homo sapiens, UniProt P28336)
[5] = target: Beta-2 adrenergic receptor (Homo sapiens, UniProt P07550)
Substance-P receptor = Substance-P receptor (Homo sapiens, UniProt P25103)
[6] = target: Beta-1 adrenergic receptor (Homo sapiens, UniProt P08588)
[7] = target: Potassium voltage-gated channel subfamily A member 1 (Homo sapiens, UniProt Q09470)
[8] = target: 5-hydroxytryptamine receptor 1D (Homo sapiens, UniProt P28221)
D(4) dopamine receptor = D(4) dopamine receptor (Homo sapiens, UniProt P21917)
[9] = target: ATP-sensitive inward rectifier potassium channel 1 (Homo sapiens, UniProt P48048)
Vasopressin V1a receptor = Vasopressin V1a receptor (Bos taurus, UniProt A2VDS9)
[10] = target: Calcitonin gene-related peptide 1 (Homo sapiens, UniProt P06881)
[11] = target: 5-hydroxytryptamine receptor 7 (Homo sapiens, UniProt P34969)
[12] = target: Cysteinyl leukotriene receptor 1 (Mus musculus, UniProt Q99JA4)
[13] = target: Platelet-activating factor receptor (Homo sapiens, UniProt P25105)
[14] = target: Type-2 angiotensin II receptor (Rattus norvegicus, UniProt P35351)
[15] = target: Gamma-aminobutyric acid (GABA) B receptor 1 (Rattus norvegicus, UniProt Q6MFX8)
[16] = target: AP-4 complex subunit sigma-1 (Homo sapiens, UniProt Q9Y587)
[17] = target: Peripheral-type benzodiazepine receptor-associated protein 1 (Homo sapiens, UniProt O95153)

Measured: Ki

CCc1c(C(=O)NN2CCCCC2)nn(-c2ccc(Cl)cc2Cl)c1-c1ccc(Br)cc1 [SR 147778]
1000 nM: [1] | P2X purinoceptor 1 | [2] | Galanin peptides | [3] | [4] | Neuromedin-B receptor | [5] | Substance-P receptor | [6] | [7] | [8] | D(4) dopamine receptor | [9] | Vasopressin V1a receptor | [10] | [11] | [12] | [13] | [14] | [15] | [16] | [17]
